Results on one compound are retold here after paper PMC5799297, “Metabolic Hydrolysis of Aromatic Amides in Selected Rat, Minipig, and Human In Vitro Systems” (Scientific Reports, 2018).

Sequences of proteins named here, by UniProt entry; tags and fusion partners are left off. Residues count along the entry.
UniProt O00748, 27-559: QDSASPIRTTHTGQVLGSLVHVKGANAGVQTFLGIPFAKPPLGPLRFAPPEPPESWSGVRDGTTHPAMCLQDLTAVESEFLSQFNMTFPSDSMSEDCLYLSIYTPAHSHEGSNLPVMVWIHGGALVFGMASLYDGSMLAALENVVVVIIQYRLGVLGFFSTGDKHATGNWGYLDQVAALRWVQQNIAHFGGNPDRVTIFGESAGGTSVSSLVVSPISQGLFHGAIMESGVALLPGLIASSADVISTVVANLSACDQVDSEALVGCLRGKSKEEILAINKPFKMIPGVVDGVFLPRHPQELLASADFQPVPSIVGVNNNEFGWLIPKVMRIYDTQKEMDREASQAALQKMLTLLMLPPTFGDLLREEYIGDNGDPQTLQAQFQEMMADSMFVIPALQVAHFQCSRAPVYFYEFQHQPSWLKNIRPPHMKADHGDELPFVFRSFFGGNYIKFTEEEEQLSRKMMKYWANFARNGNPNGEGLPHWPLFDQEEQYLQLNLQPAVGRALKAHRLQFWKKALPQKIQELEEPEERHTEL

In the data set the target is human CES2 Supersomes (Homo sapiens, UniProt O00748). Conditions: 1 mg/ml protein, 0.5 µM amide, pH 7.4, 37 °C, up to 45 min, no NADPH, hydrolysed = parent below 80% of t0 or amine metabolite detected.

With `CC(O)(CS(=O)(=O)c1ccc(F)cc1)C(=O)Nc1ccc(C#N)c(C(F)(F)F)c1` (stereo not shown) [bicalutamide, Bicalutamide], the amide hydrolysis result is “hydrolysis of bicalutamide occurred”.
